Test system: not listed separately
Assay: Selectivity index, ratio of IC50 for HDAC1 (unknown origin) to IC50 for HDAC6 (unknown origin)

Row | Ratio IC50 | Compound
1 | 142 | Cn1c(CNc2cccc3ccccc23)nc2cc(C(=O)NO)ccc21
2 | 243 | Cn1c([C@@H](Cc2ccccc2)NCc2ccccc2)nc2cc(C(=O)NO)ccc21
3 | 66 | CCCCN(Cc1nc2cc(C(=O)NO)ccc2n1C)c1ccccc1
4 | 68 | Cn1c(CNCc2ccccc2)nc2cc(C(=O)NO)ccc21
5 | 144 | C[C@@H](NCc1ccccc1)c1nc2cc(C(=O)NO)ccc2n1C
6 | 64 | CN(Cc1nc2cc(C(=O)NO)ccc2n1C)c1ccccc1

Test system: RPMI-8226
Assay: Induction of cell cycle arrest at G2 phase in human RPMI-8226 cells at 0.5 uM incubated for 24 hrs by PI staining based flow cytometry (reference value: 18.3 %)
Type: functional

Row | Compound | Activity [%]
7 | Cn1c([C@@H](Cc2ccccc2)NCc2ccccc2)nc2cc(C(=O)NO)ccc21 | 24.3

Reference: ChEMBL document CHEMBL5634123, “Design and synthesis of 1H-benzo[d]imidazole selective HDAC6 inhibitors with potential therapy for multiple myeloma” (Eur J Med Chem, 2023)
